Test results taken from patent US7419999B2, “Gamma lactams as prostaglandin agonists and use thereof” (Applied Research Systems ARS Holding N.V., priority 2002, dated 2008).

Test system: mature 10-week CD-1 mice
Experiment: In vivo ovulation assay (mature mouse ovulation induction model)
Conditions: Group 2: 0.12 mg/kg i.p., 5IU PMSG priming
Method: Ovulation triggering activity of compounds of the invention are tested in a mature mouse ovulation induction model.
Mature 10-week-old CD-mice are used. Reagents are prepared as follows: PMSG (pregnant mare serum gonadotropin) (Calbiochem, cat #367222) and hCG (Serono) are diluted in PBS. PGE2 (Cayman, Ann Arbor Mich.) is dissolved in ethanol and diluted with 0.154 M NaHCO2 Buffer (pH 8.0) to final concentration of ethanol of less than 3 percent. A test compound (based on solubility) is pre-dissolved in ethanol, DMSO or other reagents. Test compound is then diluted with saline or other diluents such as PBS or NP3S (5% N-methyl-pyrrolidinone/30% PEG-400/25% PEG-200/20% Propylene Glycol in saline). PMSG serves to stimulate follicule growth and maturation. […]
The following test protocol was employed for the test animals (typically 5 animals per test group). • Day 1: Inject 5 IU PMSG in 200 µL PBS (i.p. 15:00 PM) • Day 2: No administration • Day 3: Inject an ovulation triggering dose of hCG (i.p.) or hCG replacement (PGE2 or compound of the invention, s.c., i.v. or oral route), 15:00 PM • Day 4: Eighteen hours after injections of ovulation triggers, animals were sacrificed by CO2 asphyxiation and abdominal cavities were opened using fine scissors and forceps. […] The numbers of ovulated ova in the oviducts were counted using upright microscope with 4× objective and recorded. […]

**Q.** “HCG: human Chorionic Gonadotropin (Serono), ovulation triggering dose” was tested. Which “average of ova obtained” value did it give?
**A.** Its value is “An average of 27.2 ova were obtained with Group 2;”.
